Ab-95 light chain CDR variants: yeast mating affinities

Source: Engelhart et al. 2022 (doi:10.1038/s41597-022-01779-4), MIT Lincoln Laboratory and A-Alpha Bio; data file from the FLAb repository.

Antigen: PDVDLGDISGINAS, a 14-residue peptide of the SARS-CoV-2 spike HR2 region.

Parent scFv Ab-95: VH joined to VL by a 15-residue (Gly4Ser)3 linker. Changes lie in the light chain CDRs alone.
VH: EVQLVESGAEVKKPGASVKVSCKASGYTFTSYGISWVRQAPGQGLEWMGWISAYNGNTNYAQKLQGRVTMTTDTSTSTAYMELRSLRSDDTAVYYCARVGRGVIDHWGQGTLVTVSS
VL: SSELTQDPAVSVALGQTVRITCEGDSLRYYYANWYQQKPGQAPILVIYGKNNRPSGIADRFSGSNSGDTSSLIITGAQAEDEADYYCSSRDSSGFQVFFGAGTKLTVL

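Phage display of a naive human antibody library on the peptide gave the parent. Library AAYL52 holds single substitutions and randomly drawn double and triple substitutions in the CDRs. AlphaSeq pools MATa yeast showing the antibodies with MATalpha yeast showing the peptide. The frequency of each diploid, read from paired DNA barcodes, reflects how well the two displayed proteins bind. Scores were corrected for input abundance and mapped to Kd with protein pairs of known affinity run in the same pool. Mating was done three times.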

Positions count from residue 1 of the parent VL; L27Q puts Q in place of L.
The read-out is the apparent dissociation constant on a log10 scale (nM): the lower, the stronger.
Where no diploid with the target was found in that replicate, the entry reads "nd": below detection, most likely a poor binder, though not proof of it.
Nonspecific signal, from three strains lacking the peptide, appeared in 28% of pairings of library AAYL52, centred on 3.91 (5% of these signals below 2.90); values are not corrected for it.

| log10 Kd, replicates | changes |
|---|---|
| 3.93 nd 3.44 | L27Q/R90C/S93F |
| 4.07 4.71 nd | N33D/P54M/S93E |
| 3.72 nd 2.98 | E23L/S26A/Q96T |
| nd nd nd | G24H/R28M/Y31F |
| 3.49 nd 4.10 | N51Y/N52L/F98H |
| 3.30 2.97 4.13 | Y31A/S55I/V97E |
| 4.14 4.86 nd | L27E/G49T/Q96I |
| 3.22 5.10 2.82 | E23P/Y29T/N52V |
| 3.11 3.66 2.87 | S26V/Y29K/P54Q |
| 4.82 4.06 nd | Y30K/G49C/P54N |
| 3.88 nd nd | Y30P/R53E/S93Q |
| 2.27 2.56 2.59 | S88A/R90M/F95G |
| 2.46 2.62 3.81 | E23Y/S88Y/S93Q |
| 2.20 2.27 1.64 | E23Y/Y31E/S88L |
| nd nd nd | L27N/R53L/R90V |
| 2.66 2.09 2.67 | Y30H/Y31H/D91V |
| nd 3.98 nd | A32H/F95C/V97H |
| 3.11 2.48 1.39 | E23P/G24S/S55G |
| 3.11 3.56 nd | G94C/F95Q/Q96K |
| 3.07 2.48 1.59 | E23M/R90P |
| 3.51 2.96 2.34 | Y30H/S88V/R90N |
| 3.67 4.28 3.86 | N52F/S89V/F95G |
| 2.30 2.95 2.43 | R28E/S55L/D91S |
| 3.82 4.16 nd | G24V/L27F/D91K |
| nd nd nd | R28C/N33T/Q96Y |
| 2.59 2.65 2.83 | G24E/S26A/S93D |
| 4.25 3.91 nd | S93F/V97K/F98V |
| 4.64 nd nd | N33A/N51L/F98E |
| 4.35 3.68 3.33 | R53D/S55V |
| 2.38 2.38 1.98 | Y31G/N52S/F98G |
| nd 4.66 3.84 | G24E/S55H/S88A |
| nd nd 3.99 | N33R/R53I/F95C |
| 4.36 nd 4.06 | P54D/S55M/S93Q |
| nd nd 3.25 | K50H/S89D/D91R |
| 4.51 3.18 nd | S26Q/S93T/G94A |
| 2.05 2.44 2.83 | G24C/S88N/Q96A |